These results are taken from US12286424B2, “Small molecule inhibitors of galectin-3” (BRISTOL-MYERS SQUIBB COMPANY, priority 2020, dated 2025).

Chains of the proteins cited; added tags and fusions are not shown.
UniProt P17931, whole entry: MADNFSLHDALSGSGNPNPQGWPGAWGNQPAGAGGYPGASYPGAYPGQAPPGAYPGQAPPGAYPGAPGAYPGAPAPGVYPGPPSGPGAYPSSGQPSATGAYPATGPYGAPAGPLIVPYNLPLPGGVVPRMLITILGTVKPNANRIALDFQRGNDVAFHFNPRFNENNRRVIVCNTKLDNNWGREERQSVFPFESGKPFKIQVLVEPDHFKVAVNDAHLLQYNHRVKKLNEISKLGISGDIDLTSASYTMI

As a reminder, the IC50 is the concentration at which inhibition is half-maximal.

In this assay the target is hGalectin-3 (Homo sapiens, UniProt P17931). The assay is described as follows: Gal-3 ELISA assay (hGalectin-3 neutralization binding to asialofetuin). To be noted: read-out: hGal3 IC50; biotin-tagged hGalectin-3 15 nM, ASF-coated plate.

For `O=C([C@@H]1O[C@H](CO)[C@H](O)[C@H](n2cc(-c3cccc(F)c3)nn2)[C@H]1O)N1CCN(c2ccc3[nH]c(=O)oc3c2)CC1`, the IC50 came to 0.49 µM.
